The test system of this experiment is RAW264.7 cells. As to the kind of experiment: Anti-inflammatory activity assay in cells (LPS-induced IL-1β content, ELISA). Particulars: LPS 100 ng/mL, 24 h. The method, then:
• 1.1 Cells: RAW264.7 cells, purchased from PROCELL, lot No.: JYBR1POD9R. • 1.2 Reagents: Lipopolysaccharide (LPS), purchased from SIGMA; DMEM cell culture medium, purchased from GIBCO; Mouse IL-1β ELISA Kit, purchased from Ruixin Bio.
RAW264.7 cells were seeded into a 96-well plate at 1×10^5 cells/well, with 100 µL of cell suspension added to each well. 50 µL of drugs at corresponding gradient concentrations (0.00128, 0.0064, 0.032, 0.16, 0.8, 4, 20, and 100 µM, respectively) were added to the wells of the test groups (Compounds 1 to 27) and the control drug groups (glycyrrhetinic acid and Comparative Compounds 1 to 10). The corresponding volume of culture medium was added to the wells of the blank control group and the model group. After 1 h of incubation, 50 µL of LPS (final LPS concentration of 100 ng/mL) was added to the wells of the model group, the control drug groups, and the test groups. After incubation in an incubator at 37°C and 5% CO2 for 24 h, the supernatant was collected by centrifugation at 1000 rpm for 5 min. The IL-1β content was determined according to the instructions of the kit, and the IC50 values were calculated.
Consider `CC1(C)C(=O)CC[C@]2(C)[C@H]3C(=O)C=C4[C@H]5C[C@@](C)(C(=O)OCCN6CCOCC6)CC[C@]5(C)CC[C@@]4(C)[C@]3(C)CC[C@@H]12`, for which the half-inhibitory concentration (IC50) (as a rule, the concentration needed to halve the response being measured) is 20 to 100 nM.

Turning to `CCN(CC)c1nc2c(s1)C[C@]1(C)[C@H]3C(=O)C=C4[C@@H]5C[C@@](C)(C(=O)O)CC[C@]5(C)CC[C@@]4(C)[C@]3(C)CC[C@H]1C2(C)C`, the IC50 lay within 20 to 100 nM.

Molecule `CCN(CC)CCOC(=O)[C@@]1(C)CC[C@]2(C)CC[C@]3(C)C(=CC=C4[C@@]5(C)C=C(C#N)C(=O)C(C)(C)[C@@H]5CC[C@]43C)[C@@H]2C1` gave an IC50 of 100 to 1000 nM.

As to `CC1(C)C(=O)CC[C@]2(C)[C@H]3C(=O)C=C4[C@@H]5C[C@@](C)(C(=O)OCCN6CCOCC6)CC[C@]5(C)CC[C@@]4(C)[C@]3(C)CC[C@@H]12`, the IC50 lay within 20 to 100 nM.

Consider `CC1(C)C(=O)CC[C@]2(C)[C@H]3C(=O)C=C4[C@@H]5C[C@@](C)(C(=O)O)CC[C@]5(C)CC[C@@]4(C)[C@]3(C)CC[C@@H]12`, for which the IC50 is > 1000 nM.

Take `CC1(C)C(=O)C(Cl)=C[C@]2(C)C3=CC=C4[C@@H]5C[C@@](C)(C(=O)O)CC[C@]5(C)CC[C@@]4(C)[C@]3(C)CC[C@@H]12`: the IC50 is > 1000 nM.

Regarding `CC1(C)C(=O)CC[C@]2(C)[C@H]3C(=O)C=C4[C@H]5C[C@@](C)(C(=O)OCCN6CCCCC6)CC[C@]5(C)CC[C@@]4(C)[C@]3(C)CC[C@@H]12`, the concentration for half-maximal inhibition (IC50) was in the range of 20 to 100 nM.

With `CC1(C)C(=O)CC[C@]2(C)C3=CC=C4[C@@H]5C[C@@](C)(C(=O)O)CC[C@]5(C)CC[C@@]4(C)[C@]3(C)CC[C@@H]12`, the 50% inhibitory concentration (IC50) was > 1000 nM.

Turning to `CCCN(CCC)c1nc2c(s1)C[C@]1(C)[C@H]3C(=O)C=C4[C@@H]5C[C@@](C)(C(=O)O)CC[C@]5(C)CC[C@@]4(C)[C@]3(C)CC[C@H]1C2(C)C`, the IC50 was 20 to 100 nM.

For the molecule `CC1(C)C(=O)C(O)=C[C@]2(C)[C@H]3C(=O)C=C4[C@@H]5C[C@@](C)(C(=O)O)CC[C@]5(C)CC[C@@]4(C)[C@]3(C)CC[C@@H]12`, the IC50 was > 1000 nM.

As for `CN(C)CCOC(=O)[C@@]1(C)CC[C@]2(C)CC[C@]3(C)C(=CC(=O)[C@@H]4[C@@]5(C)CC[C@H](O)C(C)(C)[C@@H]5CC[C@]43C)[C@@H]2C1`, the IC50 was > 1000 nM.

`CN(C)CCOC(=O)[C@@]1(C)CC[C@]2(C)CC[C@]3(C)C(=CC(=O)[C@@H]4[C@@]5(C)CCC(=O)C(C)(C)[C@@H]5CC[C@]43C)[C@@H]2C1`: the concentration for half-maximal inhibition (IC50) was > 1000 nM.

In turn, `CC1(C)C(=O)CC[C@]2(C)[C@H]3C(=O)C=C4[C@@H]5C[C@@](C)(C(=O)OCCN6CCCCC6)CC[C@]5(C)CC[C@@]4(C)[C@]3(C)CC[C@@H]12` gave an IC50 of 20 to 100 nM.

With `CCN(CC)CCOC(=O)[C@@]1(C)CC[C@]2(C)CC[C@]3(C)C(=CC(=O)[C@@H]4[C@@]5(C)Cc6sc(N(C)C)nc6C(C)(C)[C@@H]5CC[C@]43C)[C@@H]2C1`, the IC50 lay in the range of 20 to 100 nM.

Turning to `CC1(C)C(=O)C(C#N)=C[C@]2(C)[C@H]3C(=O)C=C4[C@@H]5C[C@@](C)(C(=O)O)CC[C@]5(C)CC[C@@]4(C)[C@]3(C)CC[C@@H]12`, the IC50 is > 1000 nM.

As to `CC1(C)C(=O)C(Br)=C[C@]2(C)[C@H]3C(=O)C=C4[C@H]5C[C@@](C)(C(=O)O)CC[C@]5(C)CC[C@@]4(C)[C@]3(C)CC[C@@H]12`, the IC50 was in the range of 100 to 1000 nM.

`CC1(C)C(=O)CC[C@]2(C)[C@H]3C(=O)C=C4[C@H]5C[C@@](C)(C(=O)OCCN6CCCC6)CC[C@]5(C)CC[C@@]4(C)[C@]3(C)CC[C@@H]12` came in with an IC50 of 20 to 100 nM.

In the case of `CC1(C)C(=O)C(Br)=C[C@]2(C)[C@H]3C(=O)C=C4[C@@H]5C[C@@](C)(C(=O)O)CC[C@]5(C)CC[C@@]4(C)[C@]3(C)CC[C@@H]12`, the IC50 lay within 100 to 1000 nM.

In turn, `CN(C)CCOC(=O)[C@@]1(C)CC[C@]2(C)CC[C@]3(C)C(=CC=C4[C@@]5(C)C=C(C#N)C(=O)C(C)(C)[C@@H]5CC[C@]43C)[C@@H]2C1` came in with an IC50 of 100 to 1000 nM.

The molecule `CN(C)CCOC(=O)[C@@]1(C)CC[C@]2(C)CC[C@]3(C)C(=CC(=O)[C@@H]4[C@@]5(C)C=C(C#N)C(=O)C(C)(C)[C@@H]5CC[C@]43C)[C@@H]2C1` showed an IC50 of 20 to 100 nM.

Take `CCN(CC)CCCCCOC(=O)[C@@]1(C)CC[C@]2(C)CC[C@]3(C)C(=CC(=O)[C@@H]4[C@@]5(C)CCC(=O)C(C)(C)[C@@H]5CC[C@]43C)[C@@H]2C1`: the IC50 lay within 20 to 100 nM.

Regarding `CC1(C)C(=O)C(I)=C[C@]2(C)[C@H]3C(=O)C=C4[C@@H]5C[C@@](C)(C(=O)O)CC[C@]5(C)CC[C@@]4(C)[C@]3(C)CC[C@@H]12`, the half-inhibitory concentration (IC50) was > 1000 nM.

Regarding `CC1(C)C(=O)CC[C@]2(C)[C@H]3C(=O)C=C4[C@@H]5C[C@@](C)(C(=O)OCCN6CCCC6)CC[C@]5(C)CC[C@@]4(C)[C@]3(C)CC[C@@H]12`, the half-maximal inhibitory concentration (IC50) is 20 to 100 nM.

`CC1(C)C(=O)C(C#N)=C[C@]2(C)C3=CC=C4[C@@H]5C[C@@](C)(C(=O)O)CC[C@]5(C)CC[C@@]4(C)[C@]3(C)CC[C@@H]12`: the half-maximal inhibitory concentration (IC50) was > 1000 nM.

These data come from patent publication EP4831188A1, “GLYCYRRHETINIC ACID DERIVATIVE AND USE THEREOF” (dated 2026).
